Reference: patent publication US12583836B2 (Anaxis Pharma Pty Ltd, priority 2020, dated 2026)

Target: T1, MLKL (full length) (Homo sapiens, UniProt Q8NB16)
T1 construct: purchased DiscoverX (KINOMEscan service); host or cells: E. coli BL21-derived (T7 phage) or HEK293
T1 sequence (Q8NB16 1-471): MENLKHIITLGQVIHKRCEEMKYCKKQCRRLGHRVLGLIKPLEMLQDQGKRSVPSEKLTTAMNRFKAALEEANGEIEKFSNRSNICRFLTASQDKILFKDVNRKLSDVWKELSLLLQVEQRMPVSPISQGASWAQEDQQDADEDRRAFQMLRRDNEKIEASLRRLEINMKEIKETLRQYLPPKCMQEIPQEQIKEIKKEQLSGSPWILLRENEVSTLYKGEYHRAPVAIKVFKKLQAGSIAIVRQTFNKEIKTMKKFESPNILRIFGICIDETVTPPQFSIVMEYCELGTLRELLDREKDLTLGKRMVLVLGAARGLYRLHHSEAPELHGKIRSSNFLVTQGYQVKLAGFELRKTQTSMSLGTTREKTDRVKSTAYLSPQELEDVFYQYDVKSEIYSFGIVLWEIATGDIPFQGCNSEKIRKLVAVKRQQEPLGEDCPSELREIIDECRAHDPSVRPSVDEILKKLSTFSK
Test: KINOMEscan binding assay, MLKL
Details: equilibrium dissociation constant, class symbols

| Compound | Kd |
| --- | --- |
| CCS(=O)(=O)Nc1ccc(-c2n[nH]c(Nc3ccccn3)c2C(N)=O)cc1OCc1ccccc1 [Compound 20, 3-(3-(benzyloxy)-4-(ethylsulfonamido)phenyl)-5-(pyridin-2-ylamino)-1H-pyrazole-4-carboxamide] | < 10 nM |
| CC(Oc1cc(-c2n[nH]c(Nc3cnccn3)c2C(N)=O)ccc1NS(=O)(=O)C(F)F)c1ncco1 (racemic) [Compound 293, 3-(4-((difluoromethyl)sulfonamido)-3-(1-(oxazol-2-yl)ethoxy)phenyl)-5-(pyrazin-2-ylamino)-1H-pyrazole-4-carboxamide] | < 10 nM |
| NC(=O)c1c(-c2ccc(NS(=O)(=O)CC(F)(F)F)c(OCc3ccc(Cl)cn3)c2)n[nH]c1Nc1cnccn1 [Compound 262, 3-{3-[(5-chloropyridin-2-yl)methoxy]-4-(2,2,2-trifluoroethane-sulfonamido)phenyl}-5-[(pyrazin-2-yl)amino]-1H-pyrazole-4-carboxamide] | < 10 nM |
| CCS(=O)(=O)Nc1ccc(-c2n[nH]c(Nc3ccc4cc(Cl)ccc4n3)c2C(N)=O)cc1OCc1ccc(F)cc1 [Compound 220, 5-((6-chloroquinolin-2-yl)amino)-3-(4-(ethylsulfonamido)-3-((4-fluorobenzyl)oxy)phenyl)-1H-pyrazole-4-carboxamide] | 10 to 1000 nM |
| CCC(Oc1cc(-c2n[nH]c(Nc3cnccn3)c2C(N)=O)ccc1NS(=O)(=O)CC(F)(F)F)c1ccc(F)cc1 (racemic) [Compound 263, 3-(3-(1-(4-fluorophenyl)propoxy)-4-(2,2,2-trifluoroethylsulfonamido)phenyl)-5-(pyrazin-2-ylamino)-1H-pyrazole-4-carboxamide] | < 10 nM |
| CCS(=O)(=O)Nc1ccc(-c2n[nH]c(Nc3cnccn3)c2C(N)=O)c(OCc2ccc(F)cc2)c1 [Compound 21, 3-(4-(ethylsulfonamido)-2-((4-fluorobenzyl)oxy)phenyl)-5-(pyrazin-2-ylamino)-1H-pyrazole-4-carboxamide] | < 10 nM |
| CCS(=O)(=O)Nc1ccc(-c2n[nH]c(Nc3cnccn3)c2C(N)=O)cc1OC1(c2ccccc2)CC1 [Compound 152, 3-(4-(ethylsulfonamido)-3-(1-phenylcyclopropoxy)phenyl)-5-(pyrazin-2-ylamino)-1H-pyrazole-4-carboxamide] | < 10 nM |
| 3-(4-(ethylsulfonamido)-3-((4-fluorobenzyl)oxy)phenyl)-5-((4-(trifluoromethpyridinedin-2-yl)amino)-1H-pyrazole-4-carboxamide [Compound 213] | 10 to 1000 nM |
| NC(=O)c1c(-c2ccc(NS(=O)(=O)CC(F)F)cc2)n[nH]c1Nc1cccc(C(F)(F)F)n1 [Compound 49, 3-(4-((2,2-difluoroethyl)sulfonamido)phenyl)-5-((6-(trifluoromethyl)pyridin-2-yl)amino)-1H-pyrazole-4-carboxamide] | < 10 nM |
| CCS(=O)(=O)Nc1ccc(-c2n[nH]c(Nc3cccc(C(F)F)n3)c2C(N)=O)cc1OCc1ccc(F)cc1 [Compound 179, 5-((6-(difluoromethyl)pyridine-2-yl)amino)-3-(4-(ethylsulfonamido)-3-((4-fluorobenzyl)oxy)phenyl)-1H-pyrazole-4-carboxamide] | < 10 nM |
| NC(=O)c1c(-c2ccc(NS(=O)(=O)CC(F)(F)F)c(OC(c3ccc(F)cc3)C3CCC3)c2)n[nH]c1Nc1cnccn1 (stereo not drawn) [Compound 266, 3-{3-[cyclobutyl(4-fluorophenyl)methoxy]-4-(2,2,2-trifluoroethanesulfonamido)phenyl}-5-[(pyrazin-2-yl)amino]-1H-pyrazole-4-carboxamide] | < 10 nM |
| NC(=O)c1c(-c2ccc(NS(=O)(=O)CC(F)(F)F)cc2)n[nH]c1Nc1cccc(C(F)(F)F)n1 [Compound 43, 3-(4-((2,2,2-trifluoroethyl)sulfonamido)phenyl)-5-((6-(trifluoromethyl)pyridin-2-yl)amino)-1H-pyrazole-4-carboxamide] | < 10 nM |
| CCS(=O)(=O)Nc1ccc(-c2n[nH]c(Nc3cnccn3)c2C(N)=O)cc1OCc1ccncc1 [Compound 28, 3-(4-(ethylsulfonamido)-3-(194yridine-4-ylmethoxy)phenyl)-5-(pyrazin-2-ylamino)-1H-pyrazole-4-carboxamide] | < 10 nM |
| CCS(=O)(=O)Nc1ccc(-c2n[nH]c(Nc3cnccn3)c2C(N)=O)c(OCc2cccc(F)c2)c1 [Compound 208, 3-(4-(ethylsulfonamido)-2-((3-fluorobenzyl)oxy)phenyl)-5-(pyrazin-2-ylamino)-1H-pyrazole-4-carboxamide] | 10 to 1000 nM |
| C[C@H](Oc1cc(-c2n[nH]c(Nc3cccc(C(F)(F)F)n3)c2C(N)=O)ccc1NS(=O)(=O)CC(F)(F)F)c1ccc(F)cc1 [Compound 249, 3-{3-[(1S)-1-(4-fluorophenyl)ethoxy]-4-(2,2,2-trifluoroethane-sulfonamido)phenyl}-5-{[6-(trifluoromethyl)pyridin-2-yl]amino}-1H-pyrazole-4-carboxamide] | < 10 nM |
| NC(=O)c1c(-c2ccc(NS(=O)(=O)C(F)F)cc2)n[nH]c1Nc1cnccn1 [Compound 63, 3-(4-((difluoromethyl)sulfonamido)phenyl)-5-(pyrazin-2-ylamino)-1H-pyrazole-4-carboxamide] | < 10 nM |
| NC(=O)c1c(-c2ccc(NS(=O)(=O)Cc3ccc(OC(F)(F)F)cc3)cc2)n[nH]c1Nc1cnccn1 [Compound 80, 5-(pyrazin-2-ylamino)-3-(4-(((4-(trifluoromethoxy)phenyl)methyl)sulfonamido)phenyl)-1H-pyrazole-4-carboxamide] | 10 to 1000 nM |
| C[C@H](Oc1cc(-c2n[nH]c(Nc3cnn(C4CCOCC4)c3)c2C(N)=O)ccc1NS(=O)(=O)C(F)F)c1ccc(F)cc1 [Compound 306, (S)-3-(4-((difluoromethyl)sulfonamido)-3-(1-(4-fluorophenyl)ethoxy)phenyl)-5-((1-(tetrahydro-2H-pyran-4-yl)-1H-pyrazol-4-yl)amino)-1H-pyrazole-4-carboxamide] | < 10 nM |
| CCOc1cccc(Nc2[nH]nc(-c3ccc(NS(=O)(=O)CC)cc3)c2C(N)=O)n1 [Compound 96, 5-((6-ethoxypyridin-2yl)amino)-3-(4-(ethylsulfonamido)phenyl)-1H-pyrazole-4-carboxamide] | 10 to 1000 nM |
| CCS(=O)(=O)Nc1ccc(-c2n[nH]c(Nc3cnn(C)c3)c2C(N)=O)cc1 [Compound 100, 3-(4-(ethylsulfonamido)phenyl)-5-((1-methyl-1H-pyrazol-4-yl)amino)-1H-pyrazole-4-carboxamide] | < 10 nM |
| CCS(=O)(=O)Nc1ccc(-c2n[nH]c(Nc3cnccn3)c2C(N)=O)cc1OCC1CCCC1 [Compound 40, 3-(3-(cyclopentylmethoxy)-4-(ethylsulfonamido)phenyl)-5-(pyrazin-2-ylamino)-1H-pyrazole-4-carboxamide] | < 10 nM |
| CCS(=O)(=O)Nc1ccc(-c2n[nH]c(Nc3cnc(OC)cn3)c2C(N)=O)cc1 [Compound 90, 3-(4-(ethylsulfonamido)phenyl)-5-((5-methoxypyrazin-2-yl)amino)-1H-pyrazole-4-carboxamide] | < 10 nM |
| CCS(=O)(=O)Nc1ccc(-c2n[nH]c(Nc3ccnc(C)n3)c2C(N)=O)cc1 [Compound 125, 3-(4-(ethylsulfonamido)phenyl)-5-((2-methylpyrimidin-4-yl)amino)-1H-pyrazole-4-carboxamide] | 1000 to 30000 nM |
| NC(=O)c1c(-c2ccc(NS(=O)(=O)CC(F)(F)F)c(OC3(c4ccc(F)cc4)CC3)c2)n[nH]c1Nc1cnccn1 [Compound 144, 3-(3-(1-(4-fluorophenyl)cyclopropoxy)-4-((2,2,2-trifluoroethyl)sulfonamido)phenyl)-5-(pyrazin-2-ylamino)-1H-pyrazole-4-carboxamide] | < 10 nM |
| NC(=O)c1c(-c2ccc(NS(=O)(=O)CC(F)(F)F)c(OCc3ccc(F)cn3)c2)n[nH]c1Nc1ccccn1 [Compound 240, 3-{3-[(5-fluoropyridin-2-yl)methoxy]-4-(2,2,2-trifluoroethanesulfonamido)phenyl}-5-[(pyridin-2-yl)amino]-1H-pyrazole-4-carboxamide] | < 10 nM |
| CCS(=O)(=O)Nc1ccc(-c2n[nH]c(Nc3cnccn3)c2C(N)=O)cc1O[C@@H](C)c1ccc(F)cc1 [Compound 199, (S)-3-(4-(ethylsulfonamido)-3-(1-(4-fluorophenyl)ethoxy)phenyl)-5-(pyrazin-2-ylamino)-1H-pyrazole-4-carboxamide] | < 10 nM |
| CCS(=O)(=O)Nc1ccc(-c2n[nH]c(Nc3ccccn3)c2C(N)=O)c(OCc2ccc(F)cc2)c1 [Compound 201] | < 10 nM |
| NC(=O)c1c(-c2ccc(NS(=O)(=O)CCc3ccccc3)cc2)n[nH]c1Nc1ccccn1 [Compound 130, 3-(4-((2-phenylethyl)sulfonamido)phenyl)-5-(pyridin-2-ylamino)-1H-pyrazole-4-carboxamide] | 1000 to 30000 nM |
| CCS(=O)(=O)Nc1ccc(-c2n[nH]c(Nc3cnccn3)c2C(N)=O)cc1O[C@H](C)c1ccc(F)cc1 [Compound 193, (R)-3-(4-(ethylsulfonamido)-3-(1-(4-fluorophenyl)ethoxy)phenyl)-5-(pyrazin-2-ylamino)-1H-pyrazole-4-carboxamide] | < 10 nM |
| CCS(=O)(=O)Nc1ccc(-c2n[nH]c(Nc3ccc(OC)nc3)c2C(N)=O)cc1OCc1ccc(F)cc1 [Compound 197, 3-(4-(ethylsulfonamido)-3-((4-fluorobenzyl)oxy)phenyl)-5-((6-methoxypyridin-3-yl)amino)-1H-pyrazole-4-carboxamide] | < 10 nM |
